What was measured:
[1] = molecular target: T1, hα9α10 nAChRs (Homo sapiens, UniProt Q9GZZ6+Q9UGM1); test: Two-electrode voltage clamp, compound-evoked currents (compound applied alone) at hα9α10 nAChRs in Xenopus laevis oocytes; assay type: cell-based
T1 construct: host or cells: Xenopus laevis oocytes, cRNA-injected (α9:α10 cRNA ratio 1:1)

Protein sequences, listed by entry. Tags and fused reporters are not part of them. Residues count along the entry.
UniProt Q9GZZ6, 25-450: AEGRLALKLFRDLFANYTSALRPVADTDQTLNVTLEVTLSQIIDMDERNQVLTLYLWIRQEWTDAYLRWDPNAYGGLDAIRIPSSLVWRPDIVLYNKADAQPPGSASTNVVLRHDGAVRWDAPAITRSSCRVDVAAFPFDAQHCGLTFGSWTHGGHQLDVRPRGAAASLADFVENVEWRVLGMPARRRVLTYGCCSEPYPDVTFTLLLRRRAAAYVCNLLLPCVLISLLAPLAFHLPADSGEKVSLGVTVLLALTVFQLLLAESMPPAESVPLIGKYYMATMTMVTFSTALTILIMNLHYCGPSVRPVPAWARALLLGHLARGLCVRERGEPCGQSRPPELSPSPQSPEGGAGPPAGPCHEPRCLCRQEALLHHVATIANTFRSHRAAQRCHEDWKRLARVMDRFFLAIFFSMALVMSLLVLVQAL
UniProt Q9UGM1, 26-479 limits assumed: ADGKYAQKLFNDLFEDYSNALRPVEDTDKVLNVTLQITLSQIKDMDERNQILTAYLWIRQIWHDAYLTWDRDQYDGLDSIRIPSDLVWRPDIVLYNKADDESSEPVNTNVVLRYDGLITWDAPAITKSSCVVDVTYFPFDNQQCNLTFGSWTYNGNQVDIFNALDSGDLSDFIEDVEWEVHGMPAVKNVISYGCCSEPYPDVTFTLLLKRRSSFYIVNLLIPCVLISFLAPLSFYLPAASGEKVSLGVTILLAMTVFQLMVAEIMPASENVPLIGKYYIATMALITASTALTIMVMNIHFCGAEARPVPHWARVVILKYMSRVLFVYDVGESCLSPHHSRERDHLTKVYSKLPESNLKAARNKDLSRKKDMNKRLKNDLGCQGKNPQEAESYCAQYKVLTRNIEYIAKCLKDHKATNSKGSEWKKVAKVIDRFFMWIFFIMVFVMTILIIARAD

[2] = molecular target: T1, hα9α10 nAChRs; test: Two-electrode voltage clamp, inhibition of ACh-evoked currents at hα9α10 nAChRs expressed in Xenopus laevis oocytes; assay type: cell-based; conditions: 6 μM ACh

## CC[N+](CC)(CC)CCOc1ccc(CCc2ccccc2)cc1 [Compound 4]
[1]
  n H (Hill coefficient of activation): 1.2

## C[N+](CCOc1ccc(/C=C/c2ccccc2)cc1)(Cc1ccccc1)Cc1ccccc1 [Compound 13]
[1]
  n H (Hill coefficient of activation): 2.7
[2]
  n H (Hill coefficient of inhibition): 2.8

Source: publication PMC12751000, “Dual Agonist/Antagonist Modulation of α9-Containing Nicotinic Acetylcholine Receptors by 2‑Ammoniumethyl Ethers of Stilbenol and Stilbenol Analogues” (Journal of Medicinal Chemistry, 2025)
